# Data published in patent US20050020576A1, “Kappa agonist compounds and pharmaceutical formulations thereof” (priority 1996, published 2005).
# Test system: formalin-induced flinching
# Experiment: Formalin-induced nociception, late (tonic) phase flinching
# Assay type: in vivo, male Sprague-Dawley rats
# Conditions: at 300 μg
structure (smiles),measurement,value
CN(C(=O)Cc1cccc(C(F)(F)F)c1[N+](=O)[O-])[C@@H]1CCCC[C@H]1N1CCCC1.Cl (racemic),Late Phase Formalin % @ 300 μg,86% @ 300 μg
